Reference: ChEMBL document CHEMBL3585263, “Novel Octahydropyrrolo[3,4-c]pyrroles Are Selective Orexin-2 Antagonists: SAR Leading to a Clinical Candidate” (J Med Chem, 2015)

By UniProt entry, the sequences of proteins in these tests, tags left out.
UniProt O43613, whole entry: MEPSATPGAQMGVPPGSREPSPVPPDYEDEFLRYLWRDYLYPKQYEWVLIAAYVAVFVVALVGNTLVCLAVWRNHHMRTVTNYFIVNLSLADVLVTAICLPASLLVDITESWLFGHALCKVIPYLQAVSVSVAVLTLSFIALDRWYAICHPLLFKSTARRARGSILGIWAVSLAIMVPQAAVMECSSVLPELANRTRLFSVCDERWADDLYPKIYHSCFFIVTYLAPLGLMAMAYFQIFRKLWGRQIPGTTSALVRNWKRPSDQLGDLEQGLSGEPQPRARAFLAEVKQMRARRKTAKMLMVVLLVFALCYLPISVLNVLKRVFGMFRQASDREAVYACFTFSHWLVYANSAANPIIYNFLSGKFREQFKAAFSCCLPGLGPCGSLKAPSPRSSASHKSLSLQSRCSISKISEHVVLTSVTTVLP

Molecular target: Orexin/Hypocretin receptor type 1 (Homo sapiens, UniProt O43613)

SMILES: Cc1cc(C)nc(N2C[C@H]3CN(C(=O)c4ccc(F)cc4-n4nccn4)C[C@H]3C2)n1
- Ki: 1960 nM
